From US8282952B2, “Insect attractant” (Activetrad (Proprietary) Limited, priority 2007, dated 2012)

Test system: Female medflies
Assay: Delta trap catches in temperature controlled room, released female medflies
Conditions: as amine in the NATC/amine/NH4Ac/Molasses mixture at 0.5% of each component

OCCN(CCO)CCO
female medfly attraction compared with GF120-5%: comparable to 20% better
